Assay results taken from patent US7700560B2 (University of Maryland, Baltimore County, priority 2003, dated 2010).

Sequences of proteins named here, by UniProt entry; tags and fusion partners are left off. Residues count along the entry.
UniProt Q04760, 2-184 limits assumed: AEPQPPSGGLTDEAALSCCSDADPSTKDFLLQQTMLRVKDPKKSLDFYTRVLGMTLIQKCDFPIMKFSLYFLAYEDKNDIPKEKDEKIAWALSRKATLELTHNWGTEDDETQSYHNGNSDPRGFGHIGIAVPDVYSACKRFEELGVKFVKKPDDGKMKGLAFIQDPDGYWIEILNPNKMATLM

Biological target: human GlxI (Homo sapiens, UniProt Q04760)
Assay: Competitive inhibition constants (Kis) with human GlxI
Conditions: read-out: Ki, hGlxI; sodium phosphate buffer, 50 mM, pH 7, 25° C.; mean (±S.D.) triplicate

NCCC(=O)NCCC(=O)NCCC(=O)NCCC(=O)NCCC(=O)N[C@@H](CCC(=O)N[C@@H](CSC(=O)N(O)c1ccc(Cl)cc1)C(=O)NCC(=O)O)C(=O)O showed a Ki of 744 nM.
